The values below are quoted from earlier work in article PMC11768433 (Viruses, 2024).

One data set relates to HSV-2. Set-up: method as in Ref.35216177. Particulars: HSV-2 replication, Vero cells; ref Ref.35216177.
Data set [1] has as its system HSV-1. Also on record: method as in Ref.35216177. The following applies: HSV-1 replication, Vero cells; ref Ref.35216177.
In a further data set the test system is HEK293T cell. Also on record: method as in Ref.30089693. The following applies: ref Ref.30089693.
Data set [2] deals with SIV(239,PBJ). Also on record: method as in Ref.30089693. The following applies: TZM-bl, ref Ref.30089693.
A further data set concerns MT-4 cell. Set-up: method as in Ref.30089693. Particulars: ref Ref.30089693.
Data set [3] has as its system Human parainfluenza viruse 3(HPIV 3). Also on record: method as in Ref.28344321. Particulars: HPIV 3 infection, Vero cells; ref Ref.28344321.
The subject of data set [4] is Human embryonic kidney HEK293T cells. Also on record: method as in Ref.30867304. The following applies: ref Ref.30867304.
For data set [5], the system named is SIV(239,PBJ). Also on record: method as in Ref.30867304. The following applies: TZM-bl, range, ref Ref.30867304.
In data set [6] the test system is hepatitis C virus(HCVpp). Also on record: method as in Ref.20156485. The following applies: primary human hepatocytes, ref Ref.20156485.
The subject of data set [7] is hepatitis C virus(HCVpp). Set-up: method as in Ref.20156485. The following applies: Huh-7 human hepatoma cells, ref Ref.20156485.
In data set [8] the test system is HCoV-229E. Set-up: method as in Ref.35216177. Particulars: HCoV-229E replication, Vero cells; ref Ref.35216177.
Data set [9] concerns Human parainfluenza virus type-2 (HPIV2). Also on record: method as in Ref.35055066. Particulars: ref Ref.35055066.
In data set [10] the test system is HCoV-229E. Set-up: method as in Ref.35055066. The following applies: virus pre-treatment, ref Ref.35055066.
Data set [11] deals with HSV-1. Also on record: method as in Ref.35055066. The following applies: ref Ref.35055066.
For the next data set, the system named is HPIV-3. Also on record: method as in Ref.35216177. Particulars: HPIV-3 replication, Vero cells; ref Ref.35216177.
For a further data set, the system named is HCoV-OC43. Also on record: method as in Ref.35216177. Particulars: HCoV-OC43 replication, Vero cells; ref Ref.35216177.

Where two headings read alike, the source gives them in different places.

The IC50 is the midpoint of a concentration-inhibition curve. Consider “FVPWFSKFlWRIL [DRAVPe00385, DRAVP database entry, TL peptide]”, for which the IC50 with HSV-2 was 0.77 µM; in the data set with HSV-1 [1] it was 3.01 µM.

A word on the CC50: it is the concentration that lowers cell viability or growth by half. With IEELIKKSEEQQKKNEEELKKLEX [DRAVPe00656], in the data set on HEK293T cell, the CC50 is 140.43 µM.

“CGGFVPWFSKFlXRIL [DRAVPe00392, DRAVP database entry, TL peptide]”: the IC50 in the data set with HSV-1 [1] is 2.32 µM.

In the case of “YTSLIEELIKKSEEQQKKNEEELKKLEX [DRAVPe00783]”, the CC50 with HEK293T cell is 166.77 µM. Moreover, the IC50 with SIV(239,PBJ) [2] was 0.06 nM.

In the case of “FVQWFSKFLGRIL [DRAVPe00376, DRAVP database entry, TL peptide]”, the IC50 in the data set on HSV-2 is 8.28 µM; with HSV-1 [1], 8.55 µM.

As for “FVPWFSKFlXRILC [DRAVPe00389, DRAVP database entry, TL peptide]”, in the data set with HSV-1 [1], the IC50 is 6.4 µM.

As for “LEANIEELLKKAEEQQKKNEEELKKLEX [DRAVPe00784]”, the figures for the CC50 in the data set on HEK293T cell and in the data set on MT-4 cell were 130.07 µM and 135.07 µM, respectively. Besides, the IC50 in the data set with SIV(239,PBJ) [2] was 0.03 to 0.06 nM.

On to “VALDPIDIAnti-SIVLNKAKSDLEESKEWIRRSNGKLDSIGSGSGC [DRAVPe01791]”, for which, in [3], the IC50 was 1 nM.

Turning to “YTSLIHSLIEESQNQQEKNEQELLELDX [DRAVPe00782]”, the CC50 in the data set with HEK293T cell was 408 µM.

In the case of “FVPWFSKFlXRILGGC [DRAVPe00390, DRAVP database entry, TL peptide]”, in the data set with HSV-1 [1], the IC50 is 9.54 µM.

Turning to “WEQKIEELLKKAEEQQKKNEEELKKLEKX [DRAVPe00787]”, in data set [4], the CC50 was 25.31 µM. The IC50 with SIV(239,PBJ) [5] was 4 to 6 pM.

Usually EC50 stands for the concentration giving half of the maximal effect. With VSFAIKWEYVLLLFLL [DRAVPe01483], the EC50 was 0.3 µM in the data set on hepatitis C virus(HCVpp) [6] and 0.3 ± 0.4 µM in the data set on hepatitis C virus(HCVpp) [7].

For the substance “FVPWFSKFlKRIL [DRAVPe00383, DRAVP database entry, TL peptide]”, the IC50 was 1 µM with HSV-2 and 2.49 µM in the data set on HSV-1 [1].

Usually IC90 stands for the concentration at which the effect reaches the 90% level. Take “FVPWFSKFlpRIL [DRAVPe00379, DRAVP database entry, TL peptide]”: the IC50 with HSV-2 and in the data set on HSV-1 [1] was more than 50 µM throughout. Further, the IC90 with HSV-2 and with HSV-1 [1] was more than 50 µM each time.

As for “VALDPIDIAnti-SIVLNKAKSDLEESKEWIRRSNGKLDSIGSGSGX [DRAVPe01793]”, in data set [3], the IC50 was 0.03 ± 0.04 nM.

For the substance “FVPWFSKFlwRIL [DRAVPe00386, DRAVP database entry, TL peptide]”, the IC50 was 0.58 µM with HSV-2 and 1.86 µM in the data set on HSV-1 [1].

Turning to “FVPWFSKFlGRIL [DRAVPe00377, DRAVP database entry, TL peptide]”, the IC50 was 8.86 µM in the data set with HSV-2, 9.99 µM with HSV-1 [1] and 7.76 µM with HCoV-229E [8].

For the substance “FVPWFSKFlXRIL [DRAVPe00396, DRAVP database entry, TL peptide]”, in the data set with HSV-1 [1], the IC50 was 3.13 µM.

In the case of “FVPWFSKFlkRIL [DRAVPe00384, DRAVP database entry, TL peptide]”, the IC50 in the data set with HSV-2 was 2.8 µM; with HSV-1 [1], 3.53 µM.

As for “WEQKIEELLKKAEEQQKKNEEELKKLEX [DRAVPe00785]”, the CC50 with HEK293T cell was 88.86 µM; in the data set on MT-4 cell, 94.06 µM. Besides, the IC50 with SIV(239,PBJ) [2] is 0.01 to 0.04 nM.

As to “AIGSILGALAKGLPTLISWIKNR [DRAVPe00469, DRAVP database peptide AR-23]”, the IC50 was 6.25 µM in data set [9] (HPIV2, co-treatment); 3.12 µM in data set [9] (HPIV2, virus pre-treatment); 3.12 µM in the data set on HCoV-229E [10]; 0.78 µM with HSV-1 [11] (HSV-1, co-treatment: simultaneous addition of AR-23 and virus to the cells); 6.25 µM in the data set on HSV-1 [11] (HSV-1, inhibition of viral attachment on the host cell membrane); 3.12 µM with HSV-1 [11] (HSV-1, inhibition the entry of virus). The IC50 with HSV-1 [11] (HSV-1, virus pre-treatment: virus incubated with the peptide) is 0.39 µM.

For the substance IEELLKKAEEQQKKNEEELKKLEX [DRAVPe00660], the CC50 in the data set with HEK293T cell was 208.43 µM; in the data set on MT-4 cell, 213.4 µM.

Regarding “FVPWFSKFlXRIL [DRAVPe00380, DRAVP database entry, TL peptide]”, the half-inhibitory concentration (IC50) was more than 50 µM in the data set with HPIV-3, 9.61 µM in the data set on HSV-2, 7.73 µM in the data set on HSV-1 [1] and 11.3 µM in the data set with HCoV-OC43. Also, the IC90 in the data set on HPIV-3 was more than 50 µM.

On to “CFVPWFSKFlXRIL [DRAVPe00391, DRAVP database entry, TL peptide]”, for which, in the data set on HSV-1 [1], the IC50 is 0.89 µM.

Take “FVPWFSKFlPRIL [DRAVPe00378, DRAVP database entry, TL peptide]”: the IC50 with HSV-2 is 9.83 µM; in the data set on HSV-1 [1] it was 7.7 µM.

Consider “FVPWFSKFlxRIL [DRAVPe00382, DRAVP database entry, TL peptide]”, for which the results for the IC50 in the data set on HPIV-3, in the data set with HSV-2 and in the data set with HSV-1 [1] were more than 50 µM, 3.13 µM and 3.65 µM, respectively. The IC90 in the data set with HPIV-3 is more than 50 µM.
